Only some compounds are listed: those with a hit (about 2.4% of all), similar ones and a draw of the others.
Tb PFK inh: T. brucei PFK enzyme inhibition; actives 0.17% (n = 330,000); T. brucei PFK, ADP-Glo luminescence; Potency, µM (series often up to 57.5 µM), actives largely listed as inhibitors; note: nearly all actives have a fitted effect of over 60% in size
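In TEA buffer at pH 8.0 with 5 mM MgCl2, enzyme (1.25 nM) converted F6P (0.5 mM) and ATP (0.1 mM) for 45 min at room temperature. ADP product was read by luciferase luminescence.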
Rango complex inh: Rango-importin beta binding inhibition; actives 0.031% (n = 340,000); Potency, µM (highest dose often 92.2 µM); Rango CFP/YFP FRET sensor + importin beta, 45 min; calls by dose curve; note: nearly all actives have a fitted effect of over 15% in size
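FRET biosensor (snurportin 1 IBB flanked by EYFP and cerulean), 50 nM, with compound 5 min, then 0.125 microM importin beta in PBS, 1 mM DTT, 0.02% Tween-20, 0.1% BSA. CFP/YFP ratio read after 45 min at room temperature; pre-read flags interference.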
ELG1 repair inh: inhibitors of ELG1-dependent DNA repair in HEK293T cells; actives 2.3% (n = 330,000); Potency, µM (doses to about 46.1 µM), most hits filed as inhibitors; HEK293T ELG1-luciferase reporter, luminescence, 16 h; DNA damage induced by 5-fluorouridine; AID 504467; note: nearly all actives have a fitted effect of over 55% in size
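Step one: seed 2,000 cells per well. Step two: pin-transfer compound or DMSO alongside 5-fluorouridine. Step three: incubate 16 hr, 37 °C, 5% CO2. Step four: add ONE-Glo, wait 30 min, read luminescence.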
PKM2 activator: activators of human pyruvate kinase M2; purified PKM2, Kinase-Glo ATP luminescence, activation; response scale: 0% is enzyme alone, no compound; AID 1631; actives 0.34% (n = 260,000); Potency, µM (top dose mostly 57.5 µM), usual class: activators; P14618; note: nearly all actives have a fitted effect of over 55% in size
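hPK-M2, >95% pure; 0.1 mM ADP / 0.5 mM PEP final; imidazole pH7.2 buffer w/ 7 mM MgCl2, 50 mM KCl; 1 h RT; Kinase-Glo lum. Intermediate enzyme activity for dual inhibitor/activator qHTS.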
Rango dissoc inh: prevents RanGTP from dissociating the Rango-importin beta complex; O95149+P62826; Biochemical FRET Rango-importin beta, RanGTP-induced dissociation; Potency, µM (top dose mostly 46.1 µM); actives 0.071% (n = 340,000); calls by dose curve; note: nearly all actives have a fitted effect of over 45% in size
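Rango FRET biosensor (snurportin-1 IBB flanked by N-terminal EYFP and C-terminal CFP10) at 0.1 uM, with 0.25 uM importin beta in PBS, 1mM DTT, 0.02% Tween-20, 0.1% BSA. 0.6 uM Ran, 2mM GTP and 0.2 uM RCC1 were then added for 45 min at room temperature. Inhibition read as loss of FRET rise.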
PGK inhibitor: T. brucei PGK inhibition. P07378. PGK/GAPDH coupled, Kinase-Glo luminescence, 60 min. Potency, µM (titrated, usually from 57.5 µM), usual class: inhibitors. actives 0.043% (n = 380,000); note: nearly all actives have a fitted effect of over 60% in size
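Recombinant glycosomal PGK reaction used 1,3-bisphosphoglycerate generated in-well by GAPDH (100nM final) in 100mM TEA pH 7.6, 5mM MgCl2, 0.01% Tween-20. After 60 minutes at room temperature, ATP was read by Kinase-Glo Plus luminescence end-point.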
Hits are given with their value; – = inactive; ? = inconclusive; · = no result given; [ ] = dose if it differs, or a comment. Unless noted, calls come from the whole dose curve; as a rule, active = well fitted curve in the direction sought with a large enough effect; inconclusive = small, poorly fitted or top-dose-only effect, or another doubt; inactive = no such curve, though single readings can be large; an effect the other way counts as inactive or inconclusive.

SMILES | Tb PFK inh | Rango complex inh | ELG1 repair inh | PKM2 activator | Rango dissoc inh | PGK inhibitor
CCOCCCNC(=O)c1cnc2sc(N3CCCCC3)nn2c1=O | · | · | · | · | · | –
CC(O)c1nc2ccccc2n1CCCOc1ccccc1 (stereo not given) | – | – | – | – | – | –
CCc1ccc(-n2ccc(=O)c(C(=O)O)n2)cc1 | – | – | – | · | – | –
Cc1ccc(NC(=O)c2c(C)oc3ccc(O)c(CN4CCCCC4)c23)c(C)c1 | · | · | · | · | · | –
O=C(NC1CCC(O)CC1)c1cccc2cccnc12 (stereo not given) | – | – | ? | · | – | –
COc1ccc(-c2cn3cccnc3n2)cc1NC(=O)c1cc(OC)c(OC)c(OC)c1 | – | – | 8.2µM | – | – | –
CCc1cccc2c(-c3ccccc3)nc(SCC(=O)Nc3ccccc3)nc12 | · | · | · | · | · | –
O=C(Nc1ccc(Cl)c(S(=O)(=O)N2CCOCC2)c1)c1ccccc1-c1ccc(C(F)(F)F)cc1 | – | – | 23µM | – | – | –
O=C(/C=C/c1ccco1)Nc1ccc(Cl)c(S(=O)(=O)N2CCOCC2)c1 | – | – | 16µM | – | – | –
O=C(CSc1ncccn1)Nc1ccc(Cl)c(S(=O)(=O)N2CCOCC2)c1 | – | – | – | · | – | –
O=C(CSc1ccccc1)Nc1ccc(Cl)c(S(=O)(=O)N2CCOCC2)c1 | – | – | 13µM | · | – | –
COc1ccc(NC(=O)C2=NN(c3ccccc3)C(=O)CC2)cn1 | – | 52µM | – | · | – | –
O=C(Nc1ccc(Cl)c(S(=O)(=O)N2CCOCC2)c1)c1cccs1 | ? | – | 26µM | · | – | –
O=C(Nc1cccc(Br)c1)c1cc(S(=O)(=O)N2CCOCC2)cs1 | – | – | 16µM | – | – | –
CN(CC(=O)Nc1ccc(Cl)c(S(=O)(=O)N2CCOCC2)c1)C(=O)c1cccs1 | – | – | – | · | – | –
O=C(CSc1cccc2cccnc12)Nc1ccc(S(=O)(=O)N2CCOCC2)cc1 | – | – | – | 25µM | – | –
CN(c1cccc(NC(=O)c2ccc(Cl)c(S(=O)(=O)N3CCOCC3)c2)c1)S(C)(=O)=O | – | – | 23µM | – | – | –
Cc1cccc(N2CCN(S(=O)(=O)c3ccc(-c4cc(C(F)(F)F)on4)s3)CC2)c1C | · | · | · | · | · | –
CCCN(C(=O)c1cccc(S(=O)(=O)N2CCCc3ccccc32)c1)C1CCS(=O)(=O)C1 (stereo not given) | – | – | – | · | – | –
Cc1cc(NC(=O)Cc2cc(F)cc(F)c2)no1 | ? | – | – | · | – | –
Cc1csc(NC(=O)C2=NN(c3ccccc3)C(=O)CC2)n1 | – | – | – | – | – | –
O=C(Nc1ccc(Cl)c(S(=O)(=O)N2CCOCC2)c1)C1=NN(c2ccccc2)C(=O)CC1 | – | – | 29µM | · | – | –
Cc1ccc(-c2csc(NC(=O)C3=NN(c4ccccc4)C(=O)CC3)n2)cc1 | – | – | 13µM | – | – | –
Cc1cccc(N2N=C(C(=O)Nc3ccc(Cl)c(S(=O)(=O)N4CCOCC4)c3)CCC2=O)c1 | – | – | ? | · | – | –
CCc1ccc(NC(=O)C2CCN(S(=O)(=O)c3ccc4c(c3)CC(C)N4C(C)=O)CC2)cc1 (stereo not given) | – | – | 7.3µM | – | – | –
SMILES | Tb PFK inh | Rango complex inh | ELG1 repair inh | PKM2 activator | Rango dissoc inh | PGK inhibitor
CC1Cc2cc(S(=O)(=O)N3CCC(C(=O)N(C)Cc4ccccc4)CC3)ccc2N1C(=O)C1CC1 (stereo not given) | – | – | 21µM | · | – | –
CC(=O)N1c2ccc(S(=O)(=O)N3CCC(C(=O)Nc4cccc(C)c4)CC3)cc2CC1C (stereo not given) | – | – | 29µM | · | – | –
CCOC(=O)C1CCN(C(=O)C2CCN(S(=O)(=O)c3ccc4c(c3)CC(C)N4C(C)=O)CC2)CC1 (stereo not given) | – | – | 10µM | · | – | –
CC(=O)N1c2ccc(S(=O)(=O)N3CCC(C(=O)Nc4cc(C)cc(C)c4)CC3)cc2CC1C (stereo not given) | – | – | – | · | – | –
COc1ccc(Cn2c(=O)n(-c3ccc(F)c(Cl)c3)c(=O)c3c2c2cc(OC)ccc2n3C)cc1 | · | · | · | · | · | –
O=C(c1ccc(F)cc1F)N1CCCC(c2nc(-c3cccs3)no2)C1 (stereo not given) | – | – | ? | – | – | –
CC(=O)Nc1c(I)c(C(=O)N[C@H]2C(O)O[C@H](CO)[C@@H](O)[C@@H]2O)c(I)c(N(C)C(C)=O)c1I (stereo not given in full) | – | – | – | · | – | –
Cc1ccc(NC(=O)C2CCN(S(=O)(=O)c3ccc4c(c3)CC(C)N4C(=O)C3CCC3)CC2)nc1 (stereo not given) | – | – | ? | · | – | –
COc1ccc(OC)c(S(=O)(=O)N2CCC(C(=O)Nc3ccccc3)CC2)c1 | – | – | – | – | – | –
COc1ccc(OC)c(S(=O)(=O)N2CCC(C(=O)Nc3cccc(C)c3)CC2)c1 | – | – | 21µM | – | – | –[11.5 µM]
Cc1ccnc(NC(=O)C2CCN(S(=O)(=O)c3ccc4c(c3)CC(C)N4C(=O)C3CCC3)CC2)c1 (stereo not given) | – | – | 9.2µM | · | – | –
Cc1ccc(CS(=O)(=O)c2cn(CC(=O)N(C)c3ccccc3)c3ccccc23)cc1 | · | · | · | · | · | –
CN1C[C@H]2CON(C)[C@H]2C[C@H]1c1cccc(N2CCOCC2)c1 | · | – | · | · | – | –
O=C(Nc1ccc(F)cc1F)c1ccc(-n2cnnc2)cc1 | · | · | · | · | · | –
COc1ccc(C(=O)CCC(=O)Nc2cc(Cl)c(O)c(Cl)c2)cc1 | – | – | – | · | – | –
CCOc1ccc(S(=O)(=O)N2CCC(c3ccncc3)CC2)cc1 | · | · | · | · | · | –
COc1cccc(NS(=O)(=O)c2ccc3[nH]cc(C(=O)NCCC(C)C)c(=O)c3c2)c1 | – | – | 18µM | – | – | –
O=c1c2ccc(Cl)cc2nc(-c2ccc([N+](=O)[O-])cc2)n1O | – | – | 9.2µM | – | – | –
O=c1c2cc(Br)ccc2nc(-c2ccc([N+](=O)[O-])cc2)n1O | – | – | ? | – | – | –
CC1Cc2nc(SCC(=O)Nc3ccc4c(c3)OCO4)n(CCc3ccccc3)c(=O)c2S1 (stereo not given) | – | – | 13µM | – | – | –
CCn1c(SCC(=O)Nc2ccc3c(c2)OCO3)nc2c(c1=O)SC(C)C2 (stereo not given) | – | – | – | – | – | –
COCCNC(=O)/C(C#N)=C/c1cccc(/C=C(\C#N)C(=O)NCCOC)c1 | – | – | 21µM | – | – | –
